Source: patent US7087424B1, “Method of controlling fungal pathogens, and agents useful for same” (priority 1999, dated 2006)

Assays:
[1] = system: take-all fungus; assay: agar overlay / PDA plate bioassay against take-all fungus; type: cell-based, G. graminis var tritici
From the text: A modification of the agar plug assay (Poplawsky et al., 1988) was used to assay for bioactivity of extracts of Pseudomonas strain AN5, or derivative strains thereof, against take-all fungus, wherein an agar overlay assay was used to test activity of specific fractions. This assay involves macerating the take-all fungus grown in Potato Dextrose (PD) broth and seeding it to a Potato Dextrose Agar (PDA) overlay. This PDA overlay was poured onto thick PDA plates. Fractions to be tested for activity were spotted on top of the overlay, and the plates were dried and incubated at 16° C. for 3–5 days.
Active fractions were identified by the appearance of a clearance zone in the plates, within an opaque background of cultured fungus.

[2] = solubility; type: physicochemical; settings: in water
From the text: Phenazine-1-carboxylic acid (PCA) is a pigmented greenish-yellow antibiotic which accumulates in cultures of P. fluorescens strain 2-79 (Gurusiddaiah et al, 1986). […] In contrast, the anti-fungal compound produced by Pseudomonas strain AN5 is highly-soluble in water. Moreover, Pseudomonas strain AN5 does produce coloured pigments while growing in media. Similarly, 2,4-diacetylphloroglucinol-producing strains of Pseudomonas sp. produce red pigments when grown on King's B medium (Keel et al, 1996). In contrast, no coloured substances were produced by Pseudomonas strain AN5 when grown on King's medium (FIG. 7).

| SMILES | biological activity against take-all relative to gluconic acid [1] | solubility [2] |
| --- | --- | --- |
| O=C(O)[C@@H](O)[C@@H](O)[C@H](O)[C@H](O)CO [mannonic acid] | not as strong as gluconic acid |  |
| O=C(O)[C@H](O)[C@@H](O)[C@H](O)[C@H](O)CO |  | highly-soluble |
